Values of other authors, collected in PMC6255974 (Frontiers in Pharmacology, 2018).
Structures can show the parent of a compound that is named as a salt.

Design: method as in Dieterich et al., 1984
Conditions: humans, oral 2 × 260 mg quinine sulfate, ref Dieterich et al., 1984, cited from earlier work

C=C[C@H]1C[N@@]2CC[C@H]1C[C@H]2[C@H](O)c1ccnc2ccc(OC)cc12 [quinine sulfate]
Plasma concentration after 12 h (12 h): 1600 ng/mL
Peak plasma concentration: 2.5 µg/mL
